US5521199A, “Piperidinyl compounds as neurokinin receptor antagonists” (Zeneca Limited, priority 1993, dated 1996)

Sequences of proteins named here, by UniProt entry; tags and fusion partners are left off.
UniProt P21452, whole entry: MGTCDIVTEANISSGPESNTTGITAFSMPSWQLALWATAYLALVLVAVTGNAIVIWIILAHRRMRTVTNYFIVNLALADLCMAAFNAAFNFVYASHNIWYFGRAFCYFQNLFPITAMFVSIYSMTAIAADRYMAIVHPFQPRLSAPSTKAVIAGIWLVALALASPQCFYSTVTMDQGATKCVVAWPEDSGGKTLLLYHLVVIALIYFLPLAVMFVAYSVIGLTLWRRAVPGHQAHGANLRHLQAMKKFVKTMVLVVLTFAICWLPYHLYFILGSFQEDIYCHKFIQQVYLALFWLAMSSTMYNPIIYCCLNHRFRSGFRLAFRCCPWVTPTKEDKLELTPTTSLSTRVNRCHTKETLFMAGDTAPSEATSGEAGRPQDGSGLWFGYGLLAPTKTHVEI

Target: human NK2 receptor (Homo sapiens, UniProt P21452)
Assay: Equilibrium-competition binding of 3H-NKA to MELM (membranes of MEL cells expressing human NK2 receptor)

- specific binding to MELM (3H-NKA 2.5 nM): 88±4%
- Bmax (equilibrium-competition experiments, MELM): 2229 fmol/mg protein
Substance: [4,5-^3 H-Leu^9 ]-NKA [^3 H-NKA]
